Results reported in ChEMBL document CHEMBL1143172, “Profiling Protein Arginine Deiminase 4 (PAD4): a novel screen to identify PAD4 inhibitors” (Bioorg Med Chem, 2008).
pIC50, pKi: −log10 of the molar value.

The chains behind the UniProt entries cited, without tags or fusion partners.
UniProt Q9UM07, whole entry: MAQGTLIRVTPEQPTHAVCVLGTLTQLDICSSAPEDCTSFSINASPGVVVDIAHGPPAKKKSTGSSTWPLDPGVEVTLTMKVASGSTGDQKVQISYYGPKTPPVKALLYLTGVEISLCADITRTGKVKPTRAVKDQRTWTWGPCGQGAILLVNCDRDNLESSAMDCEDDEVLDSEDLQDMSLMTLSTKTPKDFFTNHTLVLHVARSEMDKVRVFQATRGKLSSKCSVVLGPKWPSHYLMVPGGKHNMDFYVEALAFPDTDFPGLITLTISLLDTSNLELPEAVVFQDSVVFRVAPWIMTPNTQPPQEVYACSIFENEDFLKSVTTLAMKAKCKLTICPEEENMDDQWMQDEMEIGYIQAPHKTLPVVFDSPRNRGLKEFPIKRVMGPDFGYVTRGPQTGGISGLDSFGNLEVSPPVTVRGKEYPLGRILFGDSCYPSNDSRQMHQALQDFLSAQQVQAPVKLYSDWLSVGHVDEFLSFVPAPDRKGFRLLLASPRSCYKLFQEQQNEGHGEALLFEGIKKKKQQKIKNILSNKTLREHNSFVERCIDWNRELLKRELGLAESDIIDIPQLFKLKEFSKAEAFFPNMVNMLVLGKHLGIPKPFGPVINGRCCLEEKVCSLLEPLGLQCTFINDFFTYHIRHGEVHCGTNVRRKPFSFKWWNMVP

Assays:
[1] = target: T1, Protein-arginine deiminase type-4 (Homo sapiens, UniProt Q9UM07); test: Inhibition of PAD4 by ABPP-based assay
[2] = target: T1, Protein-arginine deiminase type-4; test: Inhibition of PAD4 measured by slope plot of Lineweaver-Burke analyses

Row | pIC50 [1] | SMILES | pKi [2]
1 | 3.07 | C[C@H]1c2cccc(O)c2C(=O)C2=C(O)C3(O)C(=O)C(C(N)=O)=C(O)[C@@H](N(C)C)[C@@H]3[C@@H](O)[C@@H]21 (single isomer, unassigned) [DOXYCYCLINE] | –
2 | 2.74 | [H]/N=C(/N)N[C@H]1[C@H](O)[C@@H](O)[C@H](O[C@@H]2O[C@@H](C)[C@](O)(C=O)[C@H]2O[C@@H]2O[C@@H](CO)[C@H](O)[C@@H](O)[C@@H]2NC)[C@@H](N/C(N)=N\[H])[C@@H]1O (stereo in doubt) [STREPTOMYCIN] | 3.25
3 | – | CN(C)[C@@H]1C(O)=C(C(N)=O)C(=O)[C@@]2(O)C(O)=C3C(=O)c4c(O)ccc(Cl)c4[C@@](C)(O)[C@H]3C[C@@H]12 [CHLORTETRACYCLINE] | 3.27
